Test results reported in patent US8642259B2, “Method for identifying substances capable of modulating the activity of a target molecule” (Sanofi-Aventis Deutschland GmbH, priority 2002, dated 2014).

System: human M1 muscarinic receptor, somatostatin receptor 2 and EDG5
Details: mixture of three receptor strains; incubation with ligands 24 h; FIG. 7B

C[N+](C)(C)CCOC(N)=O [carbachol]
detection of the agonist in the receptor mixture: can also be detected in the mixture
